For this assay, the target named is Vasopressin V1a receptor (Homo sapiens) (UniProt P37288). Kind of assay: Antagonist activity at human V1a receptor transfected in HEK293 cells at 1 uM relative to control. It counts as functional, cell-based. The arrangement: scale not given: the % may be the effect or the level left. Conditions: filed as antagonist.

Chains of the proteins cited; added tags and fusions are not shown.
UniProt P37288, whole entry, looked up: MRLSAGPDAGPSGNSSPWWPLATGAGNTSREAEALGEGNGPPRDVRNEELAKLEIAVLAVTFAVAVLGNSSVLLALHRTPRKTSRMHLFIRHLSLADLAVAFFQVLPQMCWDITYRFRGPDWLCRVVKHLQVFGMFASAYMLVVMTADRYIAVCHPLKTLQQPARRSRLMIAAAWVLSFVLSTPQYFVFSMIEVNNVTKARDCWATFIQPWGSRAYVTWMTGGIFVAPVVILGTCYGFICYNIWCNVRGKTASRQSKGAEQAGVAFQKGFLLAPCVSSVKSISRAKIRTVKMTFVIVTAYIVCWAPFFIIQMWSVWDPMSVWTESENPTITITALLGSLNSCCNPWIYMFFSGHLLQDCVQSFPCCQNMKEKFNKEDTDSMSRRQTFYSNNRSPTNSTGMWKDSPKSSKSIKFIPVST

Take `CCOc1ccc(C[C@H]2NC(=O)CCSSC[C@@H](C(=O)N3CCC[C@H]3C(=O)N[C@@H](CCCN)C(=O)NCC(N)=O)NC(=O)[C@H](CC(N)=O)NC(=O)[C@H]([C@@H](C)O)NC(=O)[C@H]([C@@H](C)CC)NC2=O)cc1`: the Activity turned out to be 86%.

Source of the values: ChEMBL document CHEMBL5370638.
